Reference: patent US20220396624A1 (HC BIOPHARMA SHANGHAI, published 2022)

Tests used:
[1] = biological target: human PD-L1 on 293T-h-PDL1 cells (human) (UniProt Q9NZQ7); assay: FACS, hybridoma culture supernatant on 293T-h-PDL1 cells
[2] = biological target: fusion protein of the extracellular region of human PD-L1 and human IgG1-FC (human) (UniProt Q9NZQ7); assay: FACS blocking of PD-L1-hFc binding to 293T-h-PD1 cells, hybridoma supernatant

Substance “murine antibody 4G7 (A7) (antibody; other documents disagree on this pair)” has an EC50 [1] of 0.543 µg/mL and an IC50 [2] of 3.42 µg/mL.
